Source: patent publication US20240285596A1, “SOLID DOSAGE FORMS AND DOSING REGIMENS COMPRISING (2R,3S,4S,5R)-4-[[3-(3,4-DIFLUORO-2-METHOXY-PHENYL)-4,5-DIMETHYL-5-(TRIFLUOROMETHYL) TETRAHYDROFURAN-2-CARBONYL]AMINO]PYRIDINE-2-CARBOXAMIDE” (VERTEX PHARMACEUTICALS INCORPORATED, priority 2021, published 2024)

System: subjects with pain following bunionectomy
Test: Randomized, double-blind, placebo-controlled study of efficacy and safety in subjects with pain following bunionectomy
Details: Compound 1 high-dose group (100 mg first dose, then 50 mg q12 h); HB/APAP group (5 mg/325 mg q6 h)

## COc1c([C@H]2[C@H](C(=O)Nc3ccnc(C(N)=O)c3)O[C@@](C)(C(F)(F)F)[C@H]2C)ccc(F)c1F (single isomer, unassigned) [Compound 1]
  Incidence of adverse event headache: 8%
  Incidence of adverse event nausea: 8%
